# Data reported in patent publication US20040197858A1.
# Biological target: thrombomodulin
# Experiment: apparent dissociation constant for thrombomodulin (K dapp); method not described
row,Kd,Substance
1,1.3 nM,purified recombinant α-thrombin (from UniProt P00734 328-363; P00734 364-622) (enzyme)
2,1.4 nM,purified α-thrombin derived from plasma (from UniProt P00734 328-363; P00734 364-622) (enzyme)
